## Yeast mating assay B: variants of the scFv Ab-14

Target: peptide PDVDLGDISGINAS, taken from heptad repeat 2 (HR2) of SARS-CoV-2 spike.

The variants keep the heavy chain, the linker and the frameworks of Ab-14 (scFv order VH, the linker GGGGSGGGGSGGGGS, VL).
VH: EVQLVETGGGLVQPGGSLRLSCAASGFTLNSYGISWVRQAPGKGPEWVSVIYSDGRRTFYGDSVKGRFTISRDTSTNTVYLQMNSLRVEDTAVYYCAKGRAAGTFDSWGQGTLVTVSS
VL: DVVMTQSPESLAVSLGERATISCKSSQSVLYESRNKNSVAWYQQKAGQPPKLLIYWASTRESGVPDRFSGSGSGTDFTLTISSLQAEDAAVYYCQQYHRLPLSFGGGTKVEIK

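The variants were designed computationally from a first round of random CDR variants and then made and measured. Their group label is 14L_GP_Gibbs (GP: Gaussian process model; Gibbs: Gibbs sampling; a sequence that several methods proposed may carry one label only). In AlphaSeq, yeast of one mating type display the scFv and yeast of the other type display the target. After mating in shaken culture at 30 °C for 16 h, diploids were selected and their barcode pairs sequenced. The ratio of observed to expected reads was calibrated, replicate by replicate, on BCL2-family standards whose Kd was known from biolayer interferometry. There are six technical replicates.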

Variants are written as CDR1, CDR2 and CDR3 of the light chain (limits as in the source). Parent: KSSQSVLYESRNKNSVA, WASTRES, QQYHRLPLS. Values are log10 of the apparent Kd in nM; lower means stronger binding. Replicates are averaged; those with no signal do not enter the mean. The authors' rule: three or more of the six replicates give a measured affinity, fewer mean a poor binder.

| CDR-L1 | CDR-L2 | CDR-L3 | log10 Kd, replicates | log10 Kd (nM), mean | signal with controls |
|---|---|---|---|---|---|
| KSQQSWEYGSRNKNSVA | NASQRED | QQYHRLPLS | 0.14 / 0.08 / -0.03 / 0.06 / 0.08 / 0.22 | 0.09 | 0/18 |
| KVSQEDDYQSRNINSVA | DASLRES | QQYHRLPLS | 0.37 / 0.03 / 0.15 / 0.12 / 0.03 / 0.27 | 0.16 | 2/18 (2.81) |
| KLSQSDWMESRNPNNVA | HASTRES | QQYHRLPLS | -0.20 / -0.47 / -0.46 / -0.62 / -0.70 / -0.49 | -0.49 | 0/18 |
| KLSQSNGYESRLKNNVA | NASTRLE | QQYHRLPLS | 0.20 / -0.06 / 0.00 / 0.02 / -0.06 / 0.11 | 0.04 | 1/18 (2.99) |
| KFSQQNLYEDRMKNPVA | NASQREQ | QQYHRLPLS | 0.37 / 0.45 / 0.20 / 0.22 / 0.35 / 0.72 | 0.39 | 0/18 |
| KLSGSMLYEQRMKNSVA | QASQRLS | QDYHRLPLS | 1.08 / 0.34 / 0.40 / 0.34 / 0.59 / 1.03 | 0.63 | 0/18 |
| KVSQSGLYGMRNKMSVA | QASQRLS | QQYHRLPLS | 0.77 / 0.96 / 0.80 / 0.84 / 0.80 / 0.86 | 0.84 | 2/18 (3.13) |
| KLSQHVEYESRNKNSVA | NAQTRLK | QQYHRLPLS | 0.54 / 0.50 / 0.50 / 0.37 / 0.54 / 0.48 | 0.49 | 0/18 |
| KMSQSELYEERNSNAVA | QASQRMS | QQYHRLPLS | 1.32 / 2.08 / 1.58 / 0.83 / 1.18 / 1.56 | 1.42 | 1/18 (2.41) |
| KWSWSVDLESRNDNSVA | DASTRED | QQYHRLPLS | 1.50 / 0.95 / 1.33 / 1.10 / 1.59 / 0.72 | 1.20 | 0/18 |
| KVSQLDLGESRNKNSVA | HAHTRLS | QQYHRLPLS | 1.21 / 1.05 / 0.98 / 0.77 / 1.12 / 1.30 | 1.07 | 1/18 (3.10) |
| KWDQSVDGESRNKNSVA | QASQREQ | QQYHRLPLS | 0.60 / 0.16 / 0.20 / 0.33 / 0.30 / 0.34 | 0.32 | 1/18 (2.88) |
| KQQQGQDYESRNKNSVA | DASLRES | QQYHRLPLS | -0.20 / 0.15 / -0.23 / -0.31 / -0.07 / -0.16 | -0.14 | 1/18 (2.71) |
| KSSQSDLYESRNGNSVA | DASTRMD | QQYHRLPLS | 0.12 / -0.21 / -0.16 / -0.28 / -0.30 / -0.11 | -0.16 | 0/18 |
| KLSQSVGYGSRNKWSVA | EASTRES | QQYHRLPLS | 0.38 / 0.07 / 0.44 / 0.24 / -0.27 / 0.31 | 0.20 | 0/18 |
| KLQQSWMMQERNKNSVA | HASMRLS | QQYHRLPLS | 1.14 / 0.65 / 0.61 / 0.34 / 0.94 / 1.27 | 0.82 | 0/18 |
| KSEMEVYYGDRNKNSVA | QASTRES | QQYHRLPLS | -0.26 / -0.29 / -0.38 / -0.31 / -0.40 / -0.47 | -0.35 | 1/18 (2.26) |
| KISQSVLMESLNKNSVA | HASTRLD | QQYHRLPLS | 0.25 / 0.52 / 0.14 / 0.02 / 0.36 / 0.42 | 0.28 | 2/18 (3.33) |
| KMLQSHLYESRNKNSVA | NASTREW | QQYHRLPLS | 0.57 / 0.05 / 0.25 / -0.05 / 0.09 / 0.02 | 0.16 | 2/18 (2.84) |
| KLQMSHGYESRMKNSVA | QASQREE | QQYHRLPLS | 0.06 / 0.06 / 0.11 / -0.01 / 0.07 / 0.38 | 0.11 | 4/18 (2.55) |
| KLFQSWLYEQRNPNSVA | NASQRLL | QQYHRLPLS | 0.59 / 0.43 / 0.39 / 0.40 / 0.51 / 0.54 | 0.48 | 1/18 (4.30) |
| KLMQEMLYESRAANSVA | NASQREE | QQYHRLPLS | 0.02 / 0.03 / -0.46 / -0.47 / -0.13 / -0.15 | -0.19 | 1/18 (1.89) |
| KMSQSQLYEWRNKNSVA | NASTRES | QQYHRLPLS | 0.19 / -0.10 / -0.18 / -0.14 / 0.22 / 0.05 | 0.01 | 1/18 (2.69) |
| KVSQSMLIESRNSNSVA | NASTREH | QQYHRLPLS | 1.27 / 0.99 / 0.94 / 1.38 / 1.22 / 1.16 | 1.16 | 0/18 |
| KVDQSVLLKSRNKNAVA | QASTRES | QDYHRLPLS | 1.05 / 0.61 / 0.69 / 0.72 / 0.36 / 1.06 | 0.75 | 2/18 (2.93) |
| KISQSVEYESRDKNSVA | NASTREQ | QQYHRLPLS | 1.04 / 0.86 / 1.41 / 0.82 / 1.14 / 1.10 | 1.06 | 3/18 (2.87) |
| KLQASQEYWSRNKNSVA | QASTRET | QQYHRLPLS | 0.21 / -0.07 / -0.06 / -0.24 / 0.06 / 0.10 | 0.00 | 0/18 |
| KVSQSNLGESRMKNSVA | HAHQRES | QQYHRLPLS | 0.89 / 0.56 / 0.61 / 0.91 / 0.72 / 1.11 | 0.80 | 1/18 (2.46) |
| KISQSEYYEDRNKMSVA | DASQRLS | QQYHRLPLS | 0.07 / -0.05 / -0.01 / -0.06 / -0.07 / 0.13 | 0.00 | 4/18 (3.21) |
| KLQMRMLYESRMKNSVA | DASLRES | QQYHRLPLS | -0.02 / -0.37 / -0.19 / -0.43 / -0.19 / -0.35 | -0.26 | 0/18 |
| KLEGSVEMESRWKNSVA | HASTRES | QQYHRLPLS | 0.69 / 0.60 / 0.24 / 0.20 / 0.33 / 0.59 | 0.44 | 1/18 (2.58) |
| ALQQLELYESRNWNSVA | NASTRED | QQYHRLPLS | 0.07 / -0.15 / -0.03 / -0.28 / -0.22 / 0.02 | -0.10 | 0/18 |

5 of these entries, quoted again:

CDR-L1	CDR-L2	CDR-L3	log10 Kd, replicates	log10 Kd (nM), mean	signal with controls
KWDQSVDGESRNKNSVA	QASQREQ	QQYHRLPLS	0.60 / 0.16 / 0.20 / 0.33 / 0.30 / 0.34	0.32	1/18 (2.88)
KLQMSHGYESRMKNSVA	QASQREE	QQYHRLPLS	0.06 / 0.06 / 0.11 / -0.01 / 0.07 / 0.38	0.11	4/18 (2.55)
KLSGSMLYEQRMKNSVA	QASQRLS	QDYHRLPLS	1.08 / 0.34 / 0.40 / 0.34 / 0.59 / 1.03	0.63	0/18
KLQMRMLYESRMKNSVA	DASLRES	QQYHRLPLS	-0.02 / -0.37 / -0.19 / -0.43 / -0.19 / -0.35	-0.26	0/18
KFSQQNLYEDRMKNPVA	NASQREQ	QQYHRLPLS	0.37 / 0.45 / 0.20 / 0.22 / 0.35 / 0.72	0.39	0/18

As a blank, each scFv also met three strains without target: over all light chain designs, 4% of these pairings were detected, typically at 2.64 and seldom below 1.59. The control count says in how many pairings with the empty strains this scFv gave a signal, with their mean in brackets. A sequence measured in both rounds can read differently, since the two assays cover different ranges.

Reference: Li et al. 2023, doi:10.1038/s41467-023-39022-2. File: FLAb, binding data.